Values of other authors, collected in article PMC5250654 (Clinical Drug Investigation, 2016).

Test system: SYK
Conditions: read-out: SYK kinase activity IC50; ATP-competitive inhibitor; cited from earlier work

c1cn2cc(-c3ccc4cn[nH]c4c3)nc(Nc3ccc(N4CCOCC4)cc3)c2n1 [entospletinib, Entospletinib]
pIC50: 8.12

pIC50: −log10 of the molar value.
